We go through one molecule from article PMC12088423 (Proceedings of the National Academy of Sciences of the …, 2025).

For this test, the system named is G11 heterotrimers activated via muscarinic acetylcholine receptor M3.

Molecules are shown by their SMILES.

On to `C[N+](C)(C)CCOC(N)=O` [carbachol], for which the activation potency result is “comparable across all mutations”.
